Tested on: mice submitted to DSS-induced colitis
Assay: DSS-induced colitis model in mice
Assay type: in vivo, mouse (C57BL/6JRj)
Settings: oral, each day, 8 mg of KYNA / 6 mg of XANA per mouse; measured daily; DSS 2%
Description: C57BL/6JRj from Janvier lab, 7 weeks old, were housed in our specific pathogen free animal facility at IERP (INRA, Jouy en Josas, France). Five to ten female mice per group were used in all experiment, were maintained in a temperature controlled (23° C.) facility with a strict 12 h light/dark cycles and were given free access to food and water. After one acclimation week, we changed water with DSS 2% (MP Biomedical) during 7 days (day 0 to day 7), and a
recovery period was practiced until day 12 (during 5 days). Body weight loss and DAI (disease activity index) were performed daily. After 12 days the samples were harvested.
Colon distal part (cut in three parts) was harvested at day 12 after DSS model and put directly in PFA (Rothi®—Histofix 4%) during 48 h and transferred in ethanol 70% until the standard pre-fixation automat and paraffin embedded. HES coloration was practiced on 5Im cut.
Data were analyzed using Prism version 7 (Graphpad Software, San Diego, USA). The non-parametric Mann Withney test or the parametric one-way ANOVA tests with multiple Bonferroni's comparison tests were performed. Values are expressed as mean±SEM. Statistical significance was defined at a p-value ****<0.0001, ***<0.001, **<0.01, *<0.05.

Structure (SMILES): O=C(O)c1cc(O)c2cccc(O)c2n1 [XANA, xanthurenic acid]
- activity index of colitis (DAI): anti-inflammatory effect

Reference: patent US20240408183A1, “KYNURENINE AMINOTRANSFERASE AND PRODUCTS THEREOF FOR THE TREATMENT OF INFLAMMATORY BOWEL DISEASES” (Institut National De Recherche Pour L'Agriculture, …, priority 2021, published 2024)
